Rows were chosen to be rich in hits. Some 3.7% of all compounds tested hit in one or more screens of this group.
Nrf2 inh – Nrf2 pathway inhibition. A549 ARE-Fluc reporter, luciferase luminescence, 18-24 h. Potency, µM (top dose mostly 46 µM), inactives show top-dose activity change, negative = inhibition, actives largely listed as inhibitors. 2.1% of 360,000 active; also: potency is read from the fitted curve at half-maximal effect; % is scaled to controls: 0 for no effect and ±100 for the full control effect; nearly all actives have a fitted effect of over 60% in size
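A549 ARE_Fluc cells (5000/well, 5% FBS OPTI-MEM) pre-incubated 2 h, then treated with compounds 18-24 h at 37C/5% CO2 in concentration-response. CellTiter-Fluor viability read first; BugLite luciferase luminescence after 15 min at room temperature gives Nrf2 activity.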
A549 tox – counter-screen for Nrf2 inhibitors: cytotoxicity in A549 cells; A549 ARE-Fluc cells, CellTiter-Fluor viability, 18-24 h; Potency, µM (titrated, usually from 46 µM), without a hit: at the top dose activity change, negative = cytotoxicity, most hits filed as inhibitors; 0.16% of 390,000 active; AID 504648; also: potency is read from the fitted curve at half-maximal effect; % is scaled to controls: 0 for no effect and ±100 for the full control effect
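A549 ARE_Fluc cells in 5% FBS OPTI-MEM were exposed to compounds in concentration-response for 18-24 h at 37 deg C. Viability was read by CellTiter-Fluor fluorescence (Ex 405/Em 525) after 30 min, before the luciferase read.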
miR-21 reporter – raises the signal of a miR-21 reporter; AID 2288; 340,000 tested, under 10 active; Potency, µM (doses to about 38.3 µM), inactives show at the top dose reporter change, positive = more light; HeLa miR-21 FLuc reporter, luciferase, 48 h; active = well fitted rising curve with a large enough effect; inconclusive = small, poorly fitted or top-dose-only effect; inactive = no such curve, though single readings can be large or run the other way;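 note: % of control where 0% means no effect; miR-21 action dims this reporter so a rising signal means less miR-21 action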
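Using DMEM plus 10% FBS, HeLa miR-21-FLuc cells are incubated with test compounds (final up to about 40uM) for 48 hours; firefly luciferase signal is then imaged following reagent-mediated lysis.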
ClpP mod – qHTS Assay for Activators of ClpP; ATP-dependent Clp protease proteolytic subunit (Bacillus subtilis (strain 168)), P80244; purified B. subtilis ClpP, FRET peptide cleavage, 20 min; Potency, µM (series often up to 57.5 µM), inactives show top-dose activity change, negative = active; 1.9% of 340,000 active; active = well fitted falling curve with a large enough effect; inconclusive = small, poorly fitted or top-dose-only effect; inactive = no such curve, though single readings can be large or run the other way; also: potency is read from the fitted curve at half-maximal effect; the source files actives as falling curves though it sought activators and does not explain the sign; nearly all actives have a fitted effect of over 65% in size
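ClpP 10 microg/mL final, pH 8 Tris/KCl buffer with BSA, glycerol, Tween-20; compound pinned in; FRET-FV substrate; RT 20 min; Ex320/Em430; ΔFRET vs ADEP 5.8 microM, DMSO, no enzyme.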
IL-2 act – activates IL-2 in a cell-based reporter assay. 0.065% of 360,000 active. IL-2 activation reporter assay, cell-based qHTS; stimulated with anti-CD3/CD4/CD28 beads; in transgenic mouse T cells. activation, % (series mostly up to about 46 µM); in the data active = activation above about 50%; inconclusive = mostly about 30% to 49%; also: 0% is about no effect
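Quantitative HTS in unstimulated transgenic mouse T cells, with memory T cells as non-tolerant control and PMA/ionomycin as tolerance-bypass control. Compound pretreatment lasted 60 minutes before 18 h bead stimulation; EGFP/DsRed fluorescence read.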
Nrf2 activator – activators of Nrf2 (ARE) signaling | AREc32 ARE-luciferase reporter (MCF7-derived line), luminescence, 24 h | Potency, µM (highest dose often 46.1 µM), without a hit: at the top dose activation, most hits filed as activators | 0.31% of 410,000 active | AID 624171; also: potency is read from the fitted curve at half-maximal effect; % of control where 0% means no effect; nearly all actives have a fitted effect of over 65% in size
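Nrf2 activation is followed as ARE-luciferase induction in the AREc32 line after one day of compound treatment; luminescence is read with Steady-Glo.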
* hit, by the source's call; ? = inconclusive; / = no result; ! = not confirmed by another sample; [ ] = dose if it differs, or a comment. Unless noted, calls follow the shape of the dose curve; as a rule, active = well fitted curve in the direction sought with a large enough effect; inconclusive = small, poorly fitted or top-dose-only effect, or another doubt; inactive = no such curve, though single readings can be large; an effect the other way counts as inactive or inconclusive.

The chains behind the UniProt entries cited, without tags or fusion partners.
ATP-dependent Clp protease proteolytic subunit (Bacillus subtilis (strain 168)), P80244, UniProt P80244, whole entry, looked up: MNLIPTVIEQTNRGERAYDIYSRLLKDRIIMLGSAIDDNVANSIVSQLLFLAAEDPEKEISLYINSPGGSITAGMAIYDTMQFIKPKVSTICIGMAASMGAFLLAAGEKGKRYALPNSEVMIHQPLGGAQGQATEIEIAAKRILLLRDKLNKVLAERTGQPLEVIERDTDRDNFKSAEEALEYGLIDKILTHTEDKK

SMILES	Nrf2 inh	A549 tox	miR-21 reporter	ClpP mod	IL-2 act	Nrf2 activator
CN(C)c1ccc(-c2nnc(-c3cccs3)o2)cc1	?	-11%	-63%	4%	-1	0%
CCOc1ccc(NS(=O)(=O)c2ccc(C(=O)N(C)C)s2)cc1	/	3%	-6%	0%	/	-1%
CC(Nc1ccccc1N1CCCCC1)C(=O)N1CCc2ccccc21 (stereo not drawn)	9.2µM*	-9%	0%	-2%	2	0%
O=C(N/N=C/c1cc(Br)ccc1O)c1cccc(N2CCCC2=O)c1	?	1%	11%	2%	0	0%[9.22 µM]
O=C(N/N=C/c1ccco1)c1cccc(N2CCCC2=O)c1	?	5%	-36%	28µM*	0	3%
O=C(Nc1ccc(Cl)cc1)Nc1ccccn1	?	-4%	-56%	-1%	0	10µM*
O=C(Nc1ccccn1)c1ccc(S(=O)(=O)N2CCCC2)cc1	3%	-4%	/	/	-4	4%
O=C(Nc1ccccc1C(=O)Nc1ccccn1)c1ccc([N+](=O)[O-])cc1	-17%	-3%	4%	32µM*	0	-1%
O=C(Nc1ccccn1)c1ccc(S(=O)(=O)c2ccc(Cl)cc2)cc1	5.8µM*	-12%	12%	/	-2	3%
COc1ccc2ncc3c(-c4ccc(C)c(C)c4)nn(CC(=O)NC4CCCCC4)c3c2c1	10%	0%	0%	-3%	/	1%
COc1ccc2ncnc(NCc3cccs3)c2c1-c1ccc2c(c1)OCO2	?	-19%	/	/	/	/
O=C(C[N+]1(CCc2ccccc2)CCOCC1)c1ccccc1	/	/	/	1%	/	/
CC(C)Cn1nc(NC(=O)c2cccs2)c2cc3ccccc3nc21	16µM*	4%	2%	-14%	2	0%
COc1ccc2nc3c(cc2c1)c(NC(=O)c1cccs1)nn3CC(C)C	/	-4%	8%	-20%	0	8%
Cc1cc2nn(-c3cccc4ccccc34)nc2cc1NC(=O)c1cccs1	?	-23%	-13%	14µM*	0	3%
Cc1cc2nn(-c3ccc(F)cc3)nc2cc1NC(=O)c1cccc2ccccc12	29%	-7%	-28%	8%	/	-1%
CC(C)Cn1nc(NC(=O)c2ccco2)c2cc3ccccc3nc21	16µM*	20%	17%	/	8	5%
Cc1ccc(C(=O)c2cn(Cc3c(F)cccc3Cl)c3nc(C)ccc3c2=O)cc1	-8%	-8%	1%	-3%	/	0%
CC1(C)Cc2c(cnn2-c2ccccc2)-c2c1c1ccccc1n2CC(O)CBr (stereo not drawn)	/	-19%	1%	14µM*	0	?
CC1(C)Cc2c(cnn2-c2ccccc2)C(=O)/C1=N\NC(=O)c1ccccc1N	2%	0%	-9%	1%	-2	-1%
O=C(OCC#CCSc1nnc(-c2ccc(Cl)cc2)o1)c1ccc(F)cc1	9%	1%	/	/	/	/
Cc1cccnc1Nc1nc(-c2ccccc2)cs1	?	4%	-30%	0%	-1	3.2µM*
COc1ccc(C2Nc3ccccc3C(=O)N2C2CCCC2)cc1COc1ccc(NC(C)=O)cc1 (stereo not drawn)	-27%	-23%	/	/	/	/
CC(C)CCNC(=S)Nc1ccc([N+](=O)[O-])cc1	?	?	28%	-9%	-3	5%
CC(C)OC(=O)c1cc(NC(=S)Nc2ccc([N+](=O)[O-])cc2)cc(C(=O)OC(C)C)c1	16µM*	?	-11%	?	0	3%
CCCCNC(=S)Nc1ccc([N+](=O)[O-])cc1	18µM*	?	25%	0%	-2	2%
COc1cccc(OC)c1OCCNC(C)(C)C	2%	4%	-1%	32µM*	0	0%
CCCOc1ccc(-c2nc(C#N)c(N3CCC(C(N)=O)CC3)o2)cc1	-13%	3%	-17%	14µM*	3	-1%
N#Cc1nc(-c2ccc(OCc3ccc(Cl)cc3)cc2)oc1N1CCC(C(N)=O)CC1	-17%	-10%	0%	5µM*!	3	0%
Cc1ccc(Cl)cc1N1CCN(S(=O)(=O)c2ccc3oc(=O)c4ncn(C)c4c3c2)CC1	3%	-1%	0%	0%	/	0%

By substructure, the entries above containing fluorine.
SMILES	Nrf2 inh	A549 tox	miR-21 reporter	ClpP mod	IL-2 act	Nrf2 activator
Cc1cc2nn(-c3ccc(F)cc3)nc2cc1NC(=O)c1cccc2ccccc12	29%	-7%	-28%	8%	/	-1%
Cc1ccc(C(=O)c2cn(Cc3c(F)cccc3Cl)c3nc(C)ccc3c2=O)cc1	-8%	-8%	1%	-3%	/	0%
O=C(OCC#CCSc1nnc(-c2ccc(Cl)cc2)o1)c1ccc(F)cc1	9%	1%	/	/	/	/

Carrying on.
SMILES	Nrf2 inh	A549 tox	miR-21 reporter	ClpP mod	IL-2 act	Nrf2 activator
Clc1ncc(C#Cc2ccccc2)c2ncncc12	20%	-1%	/	4%	/	/
CCCn1c(SCC(O)c2ccccc2)nc2ccccc21 (stereo not drawn)	10%	4%	-5%	0%	/	1%
CC(C)(C)C(=O)Nc1ccc(C(=O)Nc2cc(NC(=O)c3ccc(NC(=O)C(C)(C)C)cc3)cc(C(=O)O)c2)cc1	?	-5%	-32%	1%	0	4%
CC(C)(C)C(=O)Nc1ccc(C(=O)Nc2cccc(Oc3ccc(C(=O)O)c(C(=O)O)c3)c2)cc1	21µM*	2%	20%	0%	0	-2%
O=C(Nc1cccc(Oc2ccc(C(=O)O)c(C(=O)O)c2)c1)c1ccc(-c2ccccc2)cc1	16µM*	4%	28%	-2%	0	0%
CCCn1c(CNC(=O)c2ccc(F)cc2)nc2ccccc21	-3%[9.27 µM]	2%	2%	2%	/	0%
CCCn1c(CNc2ccccc2O)nc2ccccc21	14%	-6%	-4%	-1%	0	14µM*
CCCN(CCC)CCCNC(=O)Cn1ncn2c(cc3sc(CC)cc32)c1=O	?	18%	-5%	-1%	/	0%
O=C(C[N+]1(CCc2ccccc2)CCOCC1)c1cccc([N+](=O)[O-])c1	/	/	/	0%	/	/
Cc1ccc(C)c(CNC(=O)c2ccc3c(c2)nc2n3CCC(C)C2)c1 (stereo not drawn)	/	0%	-23%	0%	/	3%
COc1ccc(-c2cncnc2N)cc1OC	/	/	/	-4%	-2	-1%
COc1ccc(-c2cnc(OC(C)(C)C)nc2OC(C)(C)C)cc1OC	23µM*	?	-8%	-11%	-3	0%
C[n+]1ccnc2ccccc21	/	/	/	-2%	/	/
Cc1cccc(NC(=O)CSc2nc3c([nH]c4ccccc43)c(=O)n2-c2ccc(F)cc2)c1C	/	-9%	2%	3%	/	-1%
N#Cc1cccc(NC(=O)COC(=O)Cn2nc(-c3ccccc3)oc2=O)c1	-14%	8%	/	-3%	1	-1%
Cc1cc(C)c(NC(=O)COC(=O)Cn2nc(-c3ccccc3)oc2=O)c(C)c1	4%	6%	/	22µM*	0	-1%
Cc1ccc(S(=O)(=O)c2ccc([N+](=O)[O-])cn2)cc1	?	-6%	?	/	-3	-1%
Cc1cc(S(=O)(=O)c2ccc([N+](=O)[O-])cn2)ccc1Br	?	-10%	/	0%	-1	13µM*

Some of these compounds in order of their number in miR-21 reporter, largest number first:
canonical_smiles | miR-21 reporter | ClpP mod | Nrf2 activator
COc1cccc(OC)c1OCCNC(C)(C)C | -1% | 32µM* | 0%
CCCn1c(CNc2ccccc2O)nc2ccccc21 | -4% | -1% | 14µM*
CCCOc1ccc(-c2nc(C#N)c(N3CCC(C(N)=O)CC3)o2)cc1 | -17% | 14µM* | -1%

Source: PubChem BioAssay
